## Cyclic peptide permeability, from CycPeptMPDB

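Conditions beyond the assay type are not listed; see the original paper. Other peptides of the study may be missing here. Entries at the database's floor value (log10 P of -10) are not listed.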

PAMPA measures passive passage through an artificial lipid membrane. P is given in units of 10^-6 cm/s (from log10 values with two decimals); larger means faster passage.

structure (SMILES),PAMPA (10^-6 cm/s)
CC(C)C[C@H]1NC(=O)[C@H](C)NC(=O)[C@H](Cc2ccccc2)NC(=O)[C@H](CC(C)C)N(C)C(=O)[C@@H]2CCCN2C(=O)[C@H](CC(C)C)N(C)C1=O,5.2
CC(C)C[C@H]1C(=O)N(Cc2ccccc2)CC(=O)N2CCC[C@H]2C(=O)N(C)[C@@H](CC(C)C)C(=O)N[C@@H](Cc2ccccc2)C(=O)N2CCC[C@@H]2C(=O)N(C)[C@@H](C)C(=O)N1C,6.6
CC(C)C[C@@H]1C(=O)N2CCC[C@H]2C(=O)N(C)[C@@H](CC(C)C)C(=O)N[C@@H](Cc2ccccc2)C(=O)N2CCC[C@@H]2C(=O)N(C)[C@@H](C)C(=O)N[C@H](CC(C)C)C(=O)N1C,15
CCCN1CC(=O)N(C)[C@@H](CC(C)C)C(=O)N(C)[C@@H](CC(C)C)C(=O)N2CCC[C@@H]2C(=O)N(Cc2ccccc2)CC(=O)N[C@@H](Cc2ccccc2)C1=O,6.5
CC(C)C[C@@H]1NC(=O)[C@H]2CCCN2C(=O)CN(Cc2ccccc2)C(=O)[C@H](CC(C)C)NC(=O)C[C@H](Cc2ccccc2)NC(=O)[C@@H]2CCCN2C(=O)[C@H](Cc2ccccc2)NC1=O,2.3
CC(C)C[C@H]1NC(=O)[C@H](CC(C)C)N(C)C(=O)C[C@H](Cc2ccccc2)NC(=O)[C@H](Cc2ccccc2)NC(=O)CN(Cc2ccccc2)C(=O)[C@H]2CCCN2C1=O,0.65
CC(C)C[C@@H]1NC(=O)[C@H]2CCCN2C(=O)[C@H](CC(C)C)N(C)C(=O)[C@@H](CC(C)C)NC(=O)[C@@H](C)N(C)C(=O)[C@H]2CCCN2C(=O)[C@H](Cc2ccccc2)NC1=O,0.43
CC(C)C[C@@H]1NC(=O)[C@@H]2CCCN2C(=O)C[C@H](Cc2ccccc2)NC(=O)[C@@H](CC(C)C)NC(=O)[C@@H](C)N(C)C(=O)[C@H](Cc2ccccc2)NC1=O,1.3
CC(C)C[C@@H]1C(=O)N2CCC[C@H]2C(=O)N[C@H](CC(C)C)C(=O)N[C@@H](Cc2ccccc2)C(=O)N2CCC[C@@H]2C(=O)N(C)[C@@H](C)C(=O)N[C@H](CC(C)C)C(=O)N1C,1
CC(C)C[C@@H]1NC(=O)[C@@H](C)N(C)C(=O)[C@H]2CCCN2C(=O)[C@H](Cc2ccccc2)NC(=O)[C@H](CC(C)C)N(C)C(=O)[C@H]2CCCN2C(=O)[C@@H](CC(C)C)N(C)C1=O,0.68
CC(C)C[C@@H]1C(=O)N(C)[C@H](CC(C)C)C(=O)N2CCC[C@@H]2C(=O)N(Cc2ccccc2)CC(=O)N[C@@H](Cc2ccccc2)C(=O)N2CCC[C@H]2C(=O)N(C)[C@H](C)C(=O)N1C,2.5
CC(C)C[C@@H]1C(=O)N[C@@H](Cc2ccccc2)C(=O)N2CCC[C@@H]2C(=O)N(C)[C@@H](C)C(=O)N[C@H](CC(C)C)C(=O)N(C)[C@@H](CC(C)C)C(=O)N2CCC[C@H]2C(=O)N1C,8.5
CC(C)C[C@@H]1C(=O)N(Cc2ccccc2)CC(=O)N2CCC[C@H]2C(=O)N(Cc2ccccc2)CC(=O)N[C@@H](Cc2ccccc2)C(=O)N2CCC[C@H]2C(=O)N(C)[C@@H](C)C(=O)N1C,1.2
CC(C)C[C@@H]1NC(=O)C[C@H](Cc2ccccc2)NC(=O)[C@H](Cc2ccccc2)NC(=O)[C@H](CC(C)C)N(C)C(=O)[C@@H]2CCCN2C(=O)[C@@H](CC(C)C)NC1=O,8.9
CC(C)C[C@@H]1NC(=O)[C@@H](C)N(C)C(=O)[C@H](Cc2ccccc2)NC(=O)[C@@H](CC(C)C)N(C)C(=O)[C@H]2CCCN2C(=O)[C@@H](CC(C)C)NC1=O,3
CC(C)C[C@@H]1NC(=O)[C@H](CC(C)C)N(C)C(=O)[C@H](C)N(C)C(=O)[C@H]2CCCN2C(=O)[C@H](Cc2ccccc2)NC(=O)CN(Cc2ccccc2)C(=O)[C@H]2CCCN2C1=O,4.7
CC(C)C[C@@H]1NC(=O)[C@@H](CC(C)C)N(C)C(=O)[C@@H](C)N(C)C(=O)[C@@H]2CCCN2C(=O)[C@H](Cc2ccccc2)NC(=O)CN(Cc2ccccc2)C(=O)[C@@H]2CCCN2C1=O,1.6
CC(C)C[C@@H]1NC(=O)[C@H](CC(C)C)N(C)C(=O)[C@@H](C)NC(=O)[C@H](Cc2ccccc2)NC(=O)[C@@H](CC(C)C)NC(=O)[C@H]2CCCN2C1=O,6.5
CCCN1CC(=O)N(C)[C@@H](CC(C)C)C(=O)N(Cc2ccccc2)CC(=O)N2CCC[C@H]2C(=O)N(C)[C@@H](CC(C)C)C(=O)N[C@@H](Cc2ccccc2)C(=O)N2CCC[C@@H]2C1=O,7.4
CC(C)C[C@@H]1NC(=O)[C@@H](C)N(C)C(=O)[C@@H]2CCCN2C(=O)[C@H](Cc2ccccc2)NC(=O)[C@H](CC(C)C)N(C)C(=O)[C@@H]2CCCN2C(=O)[C@@H](CC(C)C)N(C)C1=O,2.1
CC(C)C[C@H]1NC(=O)[C@H](CC(C)C)N(C)C(=O)[C@@H](C)NC(=O)[C@H]2CCCN2C(=O)[C@H](Cc2ccccc2)NC(=O)CN(Cc2ccccc2)C(=O)[C@@H]2CCCN2C1=O,0.95
CC(C)C[C@@H]1NC(=O)[C@H]2CCCN2C(=O)[C@H](CC(C)C)N(C)C(=O)[C@H](CC(C)C)N(C)C(=O)[C@@H](C)NC(=O)[C@H](Cc2ccccc2)NC1=O,2.7
CC(C)C[C@@H]1NC(=O)[C@@H](CC(C)C)N(C)C(=O)[C@H](C)N(C)C(=O)[C@@H]2CCCN2C(=O)[C@H](Cc2ccccc2)NC(=O)CN(Cc2ccccc2)C(=O)[C@@H]2CCCN2C1=O,1.5
CC(C)C[C@@H]1NC(=O)[C@@H](C)N(C)C(=O)[C@H](Cc2ccccc2)NC(=O)[C@@H](CC(C)C)N(C)C(=O)[C@@H]2CCCN2C(=O)[C@H](CC(C)C)NC1=O,4.3

The 2 highest values of PAMPA among the entries above:

structure (SMILES),PAMPA (10^-6 cm/s)
CC(C)C[C@@H]1C(=O)N2CCC[C@H]2C(=O)N(C)[C@@H](CC(C)C)C(=O)N[C@@H](Cc2ccccc2)C(=O)N2CCC[C@@H]2C(=O)N(C)[C@@H](C)C(=O)N[C@H](CC(C)C)C(=O)N1C,15
CC(C)C[C@@H]1NC(=O)C[C@H](Cc2ccccc2)NC(=O)[C@H](Cc2ccccc2)NC(=O)[C@H](CC(C)C)N(C)C(=O)[C@@H]2CCCN2C(=O)[C@@H](CC(C)C)NC1=O,8.9

Source: CycPeptMPDB (Li et al. 2023), which took these values from Townsend et al. 2020, doi:10.26434/chemrxiv.13335941.v1.